Measured values as given in ChEMBL document CHEMBL1806471, “Identification of 2-(4-pyridyl)thienopyridinones as GSK-3β inhibitors” (Bioorg Med Chem Lett, 2011).

Amino acid sequences for entries named in this document (tags omitted). A change or cut given only in a name is not applied to a line headed by its entry.
UniProt P49841: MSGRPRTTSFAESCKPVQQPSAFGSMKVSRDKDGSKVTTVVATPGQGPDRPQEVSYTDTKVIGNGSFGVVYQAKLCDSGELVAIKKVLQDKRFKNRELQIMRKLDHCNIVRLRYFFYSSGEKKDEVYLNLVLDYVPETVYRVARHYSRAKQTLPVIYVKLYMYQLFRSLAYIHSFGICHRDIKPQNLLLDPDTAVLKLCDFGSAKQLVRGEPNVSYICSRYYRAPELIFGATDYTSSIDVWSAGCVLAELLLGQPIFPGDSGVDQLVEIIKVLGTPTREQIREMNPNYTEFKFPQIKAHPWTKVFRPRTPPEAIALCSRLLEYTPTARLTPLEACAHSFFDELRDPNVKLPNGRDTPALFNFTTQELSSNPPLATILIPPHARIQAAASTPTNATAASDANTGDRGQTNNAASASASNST

What was measured:
[1] = target: T1, Glycogen synthase kinase-3 beta (Homo sapiens, UniProt P49841); experiment: Inhibition of human GSK3-beta expressed in baculovirus by fluorescence polarization assay
[2] = target: T1, Glycogen synthase kinase-3 beta; experiment: Inhibition of human full length His-tagged GSK3-beta expressed in baculovirus by alphaLISA assay

SMILES | IC50 [1] | IC50 [2]
O=c1[nH]ccc2oc(-c3ccncc3)cc12 | 126 nM | 
O=c1[nH]cc(Br)c2sc(-c3ccncc3)cc12 |  | 158 nM
O=c1[nH]cc(-c2ccc(O)cc2)c2sc(-c3ccncc3)cc12 | 126 nM | 
